Measurements as given in patent US20230190870A1, “Method for Treating Lysosomal Storage Diseases with Histatin Peptides” (THE BOARD OF TRUSTEES OF THE UNIVERSITY OF ILLINOIS, priority 2020, published 2023).

Chains of the proteins cited; added tags and fusions are not shown.
UniProt Q5BJF2, whole entry: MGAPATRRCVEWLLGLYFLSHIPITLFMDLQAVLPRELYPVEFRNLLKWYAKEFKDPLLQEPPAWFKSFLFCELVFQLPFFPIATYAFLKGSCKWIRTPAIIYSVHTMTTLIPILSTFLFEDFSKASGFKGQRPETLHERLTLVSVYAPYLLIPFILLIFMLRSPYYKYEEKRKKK

Experiments:
[1] = target: T1, full-length recombinant TMEM97 (HEK293 cells) (Homo sapiens, UniProt Q5BJF2); experiment: Surface plasmon resonance, immobilized full-length TMEM97; format: binding; conditions: SPR; full length TMEM97 and GST-TMEM97 (108-176), values given 'respectively'
T1 construct: Recombinant full-length TMEM97 (also called MAC30, from HEK293 cells); purchased OriGene (Rockville, Md.); host or cells: HEK293 cells

[2] = target: full length TMEM97 and GST-TMEM97 (108-176); experiment: SPR

Row | % Rmax [1] [%] | pKd [1] | pKd [2] | Compound
1 | 56 | 5.42 | – | CC(C)C[C@H](NC(=O)[C@H](Cc1ccc(O)cc1)NC(=O)[C@H](CC(N)=O)NC(=O)[C@H](CO)NC(=O)[C@H](CCCNC(=N)N)NC(=O)[C@H](Cc1ccc(O)cc1)NC(=O)CNC(=O)[C@H](CCCNC(=N)N)NC(=O)[C@H](Cc1c[nH]cn1)NC(=O)[C@H](CO)NC(=O)[C@H](Cc1c[nH]cn1)NC(=O)[C@H](Cc1c[nH]cn1)NC(=O)[C@H](CCCCN)NC(=O)[C@H](CCC(=O)O)NC(=O)[C@H](Cc1c[nH]cn1)NC(=O)[C@H](Cc1ccccc1)NC(=O)[C@H](CCCCN)NC(=O)[C@H](CCCNC(=N)N)NC(=O)[C@H](CCCCN)NC(=O)[C@H](Cc1ccc(O)cc1)NC(=O)CNC(=O)[C@H](Cc1c[nH]cn1)NC(=O)[C@H](Cc1c[nH]cn1)NC(=O)[C@H](CCCNC(=N)N)NC(=O)[C@H](CCCCN)NC(=O)[C@H](C)NC(=O)[C@H](Cc1c[nH]cn1)NC(=O)[C@H](CO)NC(=O)[C@@H](N)CC(=O)O)C(=O)N[C@@H](Cc1ccc(O)cc1)C(=O)N[C@@H](CC(=O)O)C(=O)N[C@@H](CC(N)=O)C(=O)O [Hst3]
2 | 72 | 5.33 | – | C[C@H](NC(=O)[C@H](Cc1c[nH]cn1)NC(=O)[C@H](CO)NC(=O)[C@@H](N)CC(=O)O)C(=O)N[C@@H](CCCCN)C(=O)N[C@@H](CCCNC(=N)N)C(=O)N[C@@H](Cc1c[nH]cn1)C(=O)N[C@@H](Cc1c[nH]cn1)C(=O)NCC(=O)N[C@@H](Cc1ccc(O)cc1)C(=O)N[C@@H](CCCCN)C(=O)N[C@@H](CCCNC(=N)N)C(=O)N[C@@H](CCCCN)C(=O)N[C@@H](Cc1ccccc1)C(=O)N[C@@H](Cc1c[nH]cn1)C(=O)N[C@@H](CCC(=O)O)C(=O)N[C@@H](CCCCN)C(=O)N[C@@H](Cc1c[nH]cn1)C(=O)N[C@@H](Cc1c[nH]cn1)C(=O)N[C@@H](CO)C(=O)N[C@@H](Cc1c[nH]cn1)C(=O)N[C@@H](CCCNC(=N)N)C(=O)NCC(=O)N[C@@H](Cc1ccc(O)cc1)C(=O)O [Hst5]
3 | – | – | 5.42 | Histatin 3 (Hst3) (peptide)
4 | – | – | 5.33 | Histatin 5 (Hst5) (peptide)

pKd: −log10 of the molar value.
